# In paper PMC11472058, “Trinucleotide cap analogs with triphosphate chain modifications: synthesis, properties, and evaluation as mRNA capping reagents” (Nucleic Acids Research, 2024):
# Molecular target: Human Dcp2 (Homo sapiens, UniProt Q8IU60)
# Test: RNA decapping assay with recombinant hDcp2
# Details: fraction of decapped RNA after 30 min of incubation with hDcp2, 27-nt RNA capped with the analog, 37 °C; triplicates ± SD
# Description: Human Dcp2 was expressed in E. coli and purified as described previously ([52]). Short 27 nt-capped RNAs (24.2 ng) were diluted with decapping buffer (50 mM Tris–HCl pH 8.0, 50 mM NH4Cl, 0.01% NP-40, 1 mM DTT, 5 mM MgCl2 and 2 mM MnCl2; 2.9 μl of freshly prepared 10 × Buffer) and the final volume was adjusted to 29 μl with ultrapure RNase free water. 4.2 ng (5 μl) of the solution was taken out as time zero reference and diluted with 5 μl loading dye (5 M urea, 44% formamide, 20 mM EDTA, 0.03% bromophenol blue, 0.03% xylene cyanol). The remaining RNAs (20 ng/24 μl) were subjected to 10 nM hDcp2 (250 nM, 1 μl) and the mixtures were incubated at 37°C for 1 h. […] The decapping progress was determined for each time point by densitometry analysis of the gels, as a ratio between the intensity of the band corresponding to capped RNA and the sum of the intensity of bands from capped and uncapped RNAs. […]
# The RNAs used to determine the capping efficiencies were also useful to study the susceptibility of capped RNA to decapping by hDcp2, the catalytic subunit of the major human mRNA decapping complex Dcp1/Dcp2, which releases m^7GDP and 5′-monophosphorylated RNA (in this case the 26-nt pApG-RNA24; Figure 4C). […] To quantify the relative susceptibility to hDcp2, we compared the decapping levels at the 30 min time point (Table 1). […]
row,Structure (SMILES),Susceptibility to hDcp2 (@30 min)
1,C[n+]1cn([C@@H]2O[C@H](COP(=O)(O)OP(=O)([O-])OP(=O)(O)OC[C@H]3O[C@@H](n4cnc5c(N)ncnc54)[C@H](O)[C@@H]3OP(=O)(O)OC[C@H]3O[C@@H](n4cnc5c(=O)[nH]c(N)nc54)[C@H](O)[C@@H]3O)[C@@H](O)[C@H]2O)c2nc(N)nc(O)c21,0.90 ± 0.04
2,CNc1ncnc2c1ncn2[C@@H]1O[C@H](COP(=O)(O)OP(=O)([O-])OP(=O)(O)OC[C@H]2O[C@@H](n3c[n+](C)c4c(O)nc(N)nc43)[C@H](O)[C@@H]2O)[C@@H](OP(=O)(O)OC[C@H]2O[C@@H](n3cnc4c(=O)[nH]c(N)nc43)[C@H](O)[C@@H]2O)[C@H]1OC,0.67 ± 0.02
